# Source: PubChem BioAssay AID602438 (Sanford-Burnham Center for Chemical Genomics, 2012)
# The chains behind the UniProt entries cited, without tags or fusion partners.
# UniProt O14786, whole entry: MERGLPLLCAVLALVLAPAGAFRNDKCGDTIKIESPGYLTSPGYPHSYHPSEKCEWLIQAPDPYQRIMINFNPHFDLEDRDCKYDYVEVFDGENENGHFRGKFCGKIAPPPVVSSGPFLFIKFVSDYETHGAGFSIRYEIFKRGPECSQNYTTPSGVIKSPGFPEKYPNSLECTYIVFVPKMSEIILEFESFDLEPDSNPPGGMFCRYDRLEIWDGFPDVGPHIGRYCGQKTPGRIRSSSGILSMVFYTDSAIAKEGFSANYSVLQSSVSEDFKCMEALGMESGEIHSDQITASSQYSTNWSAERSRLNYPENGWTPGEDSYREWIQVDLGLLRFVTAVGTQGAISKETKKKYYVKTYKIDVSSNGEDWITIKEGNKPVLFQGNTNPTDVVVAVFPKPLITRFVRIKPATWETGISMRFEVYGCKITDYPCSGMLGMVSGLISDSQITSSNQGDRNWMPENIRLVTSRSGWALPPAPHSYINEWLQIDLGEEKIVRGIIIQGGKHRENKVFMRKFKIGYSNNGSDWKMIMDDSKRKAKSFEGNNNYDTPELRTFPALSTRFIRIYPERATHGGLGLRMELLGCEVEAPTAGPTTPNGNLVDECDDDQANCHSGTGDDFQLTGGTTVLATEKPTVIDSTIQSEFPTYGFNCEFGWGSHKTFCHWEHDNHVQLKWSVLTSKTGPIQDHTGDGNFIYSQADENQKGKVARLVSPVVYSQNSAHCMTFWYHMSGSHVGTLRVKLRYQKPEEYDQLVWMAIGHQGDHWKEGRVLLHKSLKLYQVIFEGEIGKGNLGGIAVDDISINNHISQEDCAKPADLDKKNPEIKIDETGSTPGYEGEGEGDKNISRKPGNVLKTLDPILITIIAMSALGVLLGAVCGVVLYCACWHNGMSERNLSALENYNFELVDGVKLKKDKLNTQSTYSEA
# This is a selection; strong and weak results do not stand in their true shares. Active and inactive are the calls of the source.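 How the source made its calls: active means inhibition or corrected inhibition above about 18%, plus a signal ratio from 0.5 to 1.5 (limit read from the data, passing the limit was not always enough); inactive means the rest.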
# Molecular target: Neuropilin-1 (Homo sapiens) (UniProt O14786)
# Experiment: modulators of CendR peptide binding to NRP-1, primary screen, biochemical, fluorescence polarization, uHTS (AID 602438)
# Conditions: FAM-RPARPAR peptide binding to NRP-1, fluorescence polarization; at 25 µM; stronger effect = higher value
row,SMILES,inhibition
1,COc1ccccc1OP(C)(=O)Nc1cccc(Br)c1 (centres undefined),inactive: 15.6%
2,Cc1cc(C)cc(OP(C)(=O)Nc2ccc(C)cc2C)c1 (centres undefined),inactive: -6.3%
3,CCOC(=O)c1ccc(NP(C)(=O)Oc2cc(C)cc(C)c2)cc1 (centres undefined),inactive: 15.6%
4,CP(=O)(Nc1cccc(Br)c1)Oc1ccccc1 (centres undefined),inactive: -17.6%
5,Cc1cc(C)cc(OP(C)(=O)Nc2ccccn2)c1 (centres undefined),inactive: 2.8%
6,Cc1ccc(C)c(NP(C)(=O)Oc2ccccc2)c1 (centres undefined),inactive: 0.4%
7,O=C(O)c1cccc(Nc2c([N+](=O)[O-])cc([N+](=O)[O-])cc2[N+](=O)[O-])c1,inactive: 4.1%
8,CC1=NCCc2c1[nH]c1ccccc21.O=[N+]([O-])c1cc([N+](=O)[O-])c(O)c([N+](=O)[O-])c1,inactive: -16.9%
9,CCOC(=O)C(CC)C1=NC(C)(C)Cc2ccccc21.O=[N+]([O-])c1cc([N+](=O)[O-])c(O)c([N+](=O)[O-])c1 (centres undefined),inactive: -11%
10,O=[N+]([O-])c1cc([N+](=O)[O-])c(Nc2nnnn2CCO)c([N+](=O)[O-])c1,inactive: 11.2%
11,CC1=C2N=C(C=C3N=C(C(C)=C4[N-][C@@](C)([C@@H]5N=C1[C@](C)(CCC(=O)NC[C@@H](C)OP(=O)([O-])O[C@H]1[C@@H](O)[C@@H](n6cnc7cc(C)c(C)cc76)O[C@@H]1CO)[C@H]5CC(N)=O)[C@@](C)(CC(N)=O)[C@@H]4CCC(N)=O)[C@@](C)(CC(N)=O)[C@@H]3CCC(N)=O)C(C)(C)[C@@H]2CCC(N)=O.[C-]#N.[Co+3],active: 21.9%
12,CN1CCCCC1COC(=O)C1(O)c2ccccc2CCc2ccccc21 (centres undefined),inactive: -6.6%
13,COc1ccccc1OP(C)(=O)Nc1c(C)cccc1C (centres undefined),inactive: 8.6%
14,CP(=O)(Nc1ccc(SC(F)(F)F)cc1)Oc1ccccc1 (centres undefined),inactive: 4.3%
15,CCCOc1ccc(NP(C)(=O)Oc2ccc(Cl)cc2)cc1 (centres undefined),inactive: 13.4%
16,COc1ccc(-c2ccccn2)cc1.O=[N+]([O-])c1cc([N+](=O)[O-])c(O)c([N+](=O)[O-])c1,inactive: -9.2%
17,O=[N+]([O-])c1cc([N+](=O)[O-])c(-n2nnc3ccccc32)c([N+](=O)[O-])c1,inactive: 7.1%
18,CN(Cc1cccnc1)C(=O)COc1ccc(Cl)c(Cl)c1.O=[N+]([O-])c1cc([N+](=O)[O-])c(O)c([N+](=O)[O-])c1,inactive: -3.5%
19,O=[N+]([O-])c1cc([N+](=O)[O-])c(-c2cnn(-c3ccccc3)c2)c([N+](=O)[O-])c1,inactive: 11.7%
20,Cc1nc2ccc3ccccc3c2s1.O=[N+]([O-])c1cc([N+](=O)[O-])c(O)c([N+](=O)[O-])c1,inactive: 3.9%
21,CP(=O)(Oc1ccccc1)OC(c1ccccc1)C(F)(F)F (centres undefined),inactive: -6.9%
22,CP(=O)(Nc1ccc(SC(F)(F)F)cc1)Oc1ccc(Cl)cc1 (centres undefined),inactive: 4.2%
23,Cc1ccc(Nc2c([N+](=O)[O-])cc([N+](=O)[O-])cc2[N+](=O)[O-])cc1,active: 26.5%
24,Cc1cccc(C)c1OP(C)(=O)Nc1ccc(SC(F)(F)F)cc1 (centres undefined),inactive: 14.6%
25,Cc1cc(C)cc(OP(C)(=O)Nc2ccc(SC(F)(F)F)cc2)c1 (centres undefined),active: 32.1%

row,SMILES,inhibition
1,CCc1ccc(OP(C)(=O)N2CCN(c3ccc([N+](=O)[O-])cc3)CC2)cc1 (centres undefined),inactive: 0.6%
2,CP(=O)(NC(=O)Nc1ccccc1)Oc1ccccc1 (centres undefined),inactive: 5.9%
3,CCOP(C)(=S)SCC(=O)NC(C)C(=O)O (centres undefined),inactive: 3.3%
4,O=[N+]([O-])c1cc([N+](=O)[O-])c(O)c([N+](=O)[O-])c1.c1ccc(Oc2ccncc2)cc1,inactive: -2.6%
5,CCOC(=O)c1ccc(NP(C)(=O)Oc2ccc(OC)cc2)cc1 (centres undefined),inactive: 13.2%
6,CP(=O)(Nc1ccccn1)Oc1ccc(Cl)cc1 (centres undefined),inactive: 2.9%
7,CP(=S)(Nn1cnnc1)Oc1ccccc1 (centres undefined),inactive: 5.4%
8,COc1ccccc1OP(C)(=O)Nc1ccccc1 (centres undefined),inactive: 12.2%
9,CP(=O)(Nc1ccccc1Br)Oc1ccccc1 (centres undefined),inactive: -5.9%
10,O=[N+]([O-])c1cc([N+](=O)[O-])c(Nc2cccnc2)c([N+](=O)[O-])c1,inactive: 2%
11,Cc1cccc(C)c1OP(C)(N)=O (centres undefined),inactive: 16.1%
12,CC(C)(C)c1ccc(OP(C)(=O)Nc2ccc(SC(F)(F)F)cc2)cc1 (centres undefined),inactive: -20.5%
13,O=[N+]([O-])c1ccc2c(c1)C=Nc1ccccc1O2,inactive: 1.3%
14,CCOC(=O)c1ccc(NP(C)(=O)Oc2ccccc2)cc1 (centres undefined),inactive: 1.2%
15,Cc1ccc(NP(C)(=O)Oc2ccccc2)c(C)c1 (centres undefined),inactive: -7.5%
16,COc1ccccc1OP(C)(=O)Nc1ccc(C)cc1 (centres undefined),inactive: 5.6%
17,COc1ccc(OP(C)(=O)Nc2cccc(F)c2)cc1 (centres undefined),inactive: 4.1%
18,COc1ccccc1OP(C)(=O)Nc1cc(Cl)ccc1C (centres undefined),inactive: 7.9%
19,Cc1cc(C)cc(OP(C)(N)=O)c1 (centres undefined),inactive: 1.9%
20,CCN(CC)CCCOC(=O)C(O)(c1ccccc1)c1ccccc1,inactive: -9.3%
21,COc1ccccc1-c1ccccn1.O=[N+]([O-])c1cc([N+](=O)[O-])c(O)c([N+](=O)[O-])c1,inactive: -7.1%
22,COc1ccccc1OP(C)(=O)Nc1ccc(Br)cc1 (centres undefined),inactive: -1.3%
23,CN(C)CCOC(=O)C(O)(c1ccccc1)C1CCCC1 (centres undefined),inactive: 0.3%
24,COc1ccc(OP(C)(=O)Nc2ccccn2)cc1 (centres undefined),inactive: -5.5%
